Antibody variant affinities, Ab-14 heavy chain, assay 1

The target is the same throughout: PDVDLGDISGINAS, from the HR2 region of SARS-CoV-2 spike.

Parent scFv Ab-14: VH joined to VL by the linker GGGGSGGGGSGGGGS. Changes lie in the heavy chain CDRs alone.
VH: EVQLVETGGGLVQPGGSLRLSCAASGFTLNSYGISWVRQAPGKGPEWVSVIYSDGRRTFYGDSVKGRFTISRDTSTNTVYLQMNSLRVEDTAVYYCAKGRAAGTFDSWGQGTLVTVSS
VL: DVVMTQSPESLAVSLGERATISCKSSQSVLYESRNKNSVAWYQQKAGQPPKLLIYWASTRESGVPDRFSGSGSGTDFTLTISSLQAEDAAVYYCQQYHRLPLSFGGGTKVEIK

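The parent was found by panning a naive human phage display library on the peptide. Variants in AAYL49 differ from the parent at up to three CDR positions; double and triple changes were sampled at random. AlphaSeq pools MATa yeast showing the antibodies with MATalpha yeast showing the peptide. Binding brings cells together so that they mate, and sequencing counts the barcode pairs among the diploids. Read counts were normalised to the haploid input and turned into Kd by a linear fit to BCL2-family pairs of known affinity, for each replicate. Each pool was mated in three replicate cultures.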

Changes read parent residue, position, new residue, counted from the first residue of the VH shown.
All variants listed here change A101 of the VH, counted from its first residue.
The Kd shown is the geometric mean over detected replicates; a lower Kd is a better binder.
"no signal" marks a missing value. The strain was present, yet no cells mated with the target were sequenced in any replicate, which points to weak or no binding.

Variant S31C+S63N+A101F showed 360 nM (3 of 3 replicates; controls 0 of 9). Variant I51S+A101S+D106P gave 6.5 µM (1 of 3 replicates; controls 4 of 9). With L29G+Y52S+A101Y the result was no signal (0 of 3 replicates; controls 2 of 9). For Y32S+K65E+A101H, the assay gave 12 µM (2 of 3 replicates; controls 3 of 9). Variant S35R+A101Q+A102D showed no signal (0 of 3 replicates; controls 0 of 9). With G33M+A101W+F105Q the result was no signal (0 of 3 replicates; controls 1 of 9). With Y52E+A101P+A102L the result was no signal (0 of 3 replicates; controls 0 of 9). Variant F59R+K65L+A101V showed 910 nM (3 of 3 replicates; controls 5 of 9). Variant F27D+F59I+A101C showed 5.6 µM (3 of 3 replicates; controls 3 of 9).

For T28R+L29M+A101D, the assay gave no signal (0 of 3 replicates; controls 0 of 9). Variant S63W+V64K+A101Q showed 49 µM (1 of 3 replicates; controls 2 of 9). Variant F27W+A101T showed 11 nM (3 of 3 replicates; controls 1 of 9). With N30C+S63D+A101T the result was 16 nM (3 of 3 replicates; controls 2 of 9). Variant A101Q+A102K+D106W gave 1.7 µM (1 of 3 replicates; controls 0 of 9). Variant V50G+G61R+A101G showed 800 nM (2 of 3 replicates; controls 1 of 9). With F27V+I34E+A101M the result was 5.9 µM (1 of 3 replicates; controls 3 of 9). For L29F+G55N+A101Q, the assay gave no signal (0 of 3 replicates; controls 0 of 9). Variant Y32N+A101S gave 9.5 nM (3 of 3 replicates; controls 1 of 9).

With Y32L+Y60D+A101G the result was 10 µM (1 of 3 replicates; controls 1 of 9). Variant T58Q+A101H+S107T gave no signal (0 of 3 replicates; controls 0 of 9). Variant G55R+R57N+A101L gave no signal (0 of 3 replicates; controls 1 of 9). For V64L+G99S+A101T, the assay gave no signal (0 of 3 replicates; controls 0 of 9). With T58P+A101K+F105H the result was no signal (0 of 3 replicates; controls 3 of 9). With G26T+A101M+S107W the result was 380 nM (2 of 3 replicates; controls 0 of 9). With S35H+A101C+D106S the result was no signal (0 of 3 replicates; controls 0 of 9). Variant T58L+G61F+A101K showed 6.2 µM (2 of 3 replicates; controls 2 of 9). With V64I+A101T+A102F the result was no signal (0 of 3 replicates; controls 0 of 9).

Variant A101V+A102D+D106L gave no signal (0 of 3 replicates; controls 0 of 9). For R57C+R100G+A101R, the assay gave no signal (0 of 3 replicates; controls 4 of 9). Variant Y32G+A101C showed no signal (0 of 3 replicates; controls 3 of 9). For S31P+A101N, the assay gave 410 nM (1 of 3 replicates; controls 1 of 9). Variant G61K+A101K+S107D gave 460 nM (3 of 3 replicates; controls 2 of 9). Variant D54Q+G55N+A101P showed 310 nM (1 of 3 replicates; controls 0 of 9). With A101E+T104Q+S107F the result was no signal (0 of 3 replicates; controls 0 of 9). For Y52G+A101I, the assay gave 1.7 µM (2 of 3 replicates; controls 2 of 9).

Excerpt, the final 5 entries:

With S31P+A101N the result was 410 nM (1 of 3 replicates; controls 1 of 9).
With G61K+A101K+S107D the result was 460 nM (3 of 3 replicates; controls 2 of 9).
With D54Q+G55N+A101P the result was 310 nM (1 of 3 replicates; controls 0 of 9).
With A101E+T104Q+S107F the result was no signal (0 of 3 replicates; controls 0 of 9).
With Y52G+A101I the result was 1.7 µM (2 of 3 replicates; controls 2 of 9).

In this assay the parent's reference entry averaged 4.4 nM; its copy inside this library read 13 µM (one replicate of three).
Three control strains display no target. For library AAYL49, 15% of the pairings with them gave a signal, with a median of 11 µM and one signal in twenty below 680 nM, so weak values seen in few replicates may be background. For each scFv, signals with the empty controls are counted beside the result.

Reference: Engelhart et al. 2022, doi:10.1038/s41597-022-01779-4. File: FLAb, binding data.